{
  "sequences": {"note": "Chains of the proteins cited; added tags and fusions are not shown.", "UniProt P07550, whole entry": "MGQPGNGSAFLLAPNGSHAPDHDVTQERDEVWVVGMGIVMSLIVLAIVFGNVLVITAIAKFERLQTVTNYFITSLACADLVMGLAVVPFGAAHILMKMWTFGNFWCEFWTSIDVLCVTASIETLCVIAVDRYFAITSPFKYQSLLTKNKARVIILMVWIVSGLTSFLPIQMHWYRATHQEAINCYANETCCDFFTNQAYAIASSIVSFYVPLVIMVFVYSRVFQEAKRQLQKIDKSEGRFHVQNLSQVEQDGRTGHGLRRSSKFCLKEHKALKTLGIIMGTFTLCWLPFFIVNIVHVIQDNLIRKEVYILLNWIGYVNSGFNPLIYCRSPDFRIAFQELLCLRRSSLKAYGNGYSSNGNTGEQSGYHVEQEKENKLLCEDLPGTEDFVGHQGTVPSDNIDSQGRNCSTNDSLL"},
  "source": "PubChem BioAssay AID1347077",
  "about": "(National Center for Advancing Translational Sciences (NCATS), 2019)",
  "note": "The entries are a selection whose mix differs from that of the whole data set. The source made the active and inactive calls. The call rests on the fitted dose curve; in most records, active means well fitted activation curve with a large enough effect; inconclusive means small, poorly fitted or top-dose-only effect, or another doubt; inactive means no such curve, though single readings can be large or run the other way.",
  "data": [
    {"biological_target": "Beta-2 adrenergic receptor (Homo sapiens) (UniProt P07550)", "assay": "qHTS assay of beta-arrestin-biased ligands of beta2-adrenergic receptor: NCGC Sytravon Library Screen;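 further: 0% = DMSO and full agonism = EC100 isoproterenol or metaproterenol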", "details": "HTLA Tango cells, beta-arrestin recruitment, luciferase luminescence, 18 h; at 46.1 µM (top of the series)", "source_text": "The concept of biased agonism is an emerging concept of molecular pharmacology which proposes that seven transmembrane receptors (7TMRs) or G protein-coupled receptors (GPCRs), exist in multiple signaling conformations and complexes and that ligands (either agonists or antagonists) can induce signaling biased responses for distinct signal transduction cascades. […] Furthermore, accumulating evidence over the last decade has drawn attention to a novel function of beta-arrestins as signal transducers that scaffold various signaling molecules upon activation of 7TMRs. […] This beta-arrestin-biased signaling presumably leads to distinct physiological outcomes from those by G protein activation. Additionally, the active receptor conformations which prefer on this beta-arrestin signaling are likely different from those activating G protein signaling. […] The goal of this screening project will be to discover and optimize novel beta-arrestin-biased ligands for beta2-AR signaling. A luminescent cell-based assay for beta2-AR-mediated agonism, known as the Tango assay, has been validated in which ligand binding of a recombinant beta2-AR and subsequent recruitment of a recombinant beta-arrestin lead to the release of the transcriptional activator tTA, which upregulates transcription of a tTA-responsive luciferase gene. […] Compounds from the NCGC Sytravon Library collection were screened as a concentration-titration series that ranged from 46 microM to 0.6 nM. NIH Molecular Libraries Probe Production Network [MLPCN] NIH Chemical Genomics Center [NCGC] MLPCN Grant: Fast-track/HHSN271700800025C PI: Bryan Roth and Bob Lefkowitz\nTango cells were dispensed into white, solid, tissue-culture-treated 1536-well plates at 1500 cells/well in DMEM, containing 1% fetal bovine serum (FBS). Then, 23 nL of compounds or DMSO were delivered to each well using a pin tool. Plates were incubated at 37 degrees C, 5% CO2 for 18 hr. Then 2.5 uL luminescent substrate mix (in-house prepared: 150 mM Tris-Cl, pH 7.6, 3 mM MgCl2, 1% Triton X-100, 5 mM DTT, 0.5 mM CoA, 0.15 mM ATP, 0.44 mM D-luciferin, final concentrations) was added to each well. Plates were then incubated for 15 minutes at room temperature, and subsequently measured on a ViewLux plate reader for luminescent signal using a clear filter with a 10 second exposure and 2x binning. The %Activity was determined from the corrected luminescence values. […] Concentration-response curves were fitted to the signals arising from the resulting luminescence. The concentration-effect curves were then classified based on curve quality (r2), response magnitude and degree of measured activity, and compounds were subsequently categorized based on their curve class.", "values": [
      {"smiles": "O=C(NCC1(N2CCOCC2)CCCCC1)c1ccccc1Br", "activation": "inactive: -3.59%"},
      {"smiles": "CCCCOc1ccccc1C(=O)NCC1(N2CCOCC2)CCCCC1", "activation": "inactive: -3.47%"},
      {"smiles": "CCCOc1cccc(C(=O)NCC2(N3CCOCC3)CCCCC2)c1", "activation": "inactive: 0.941%"},
      {"smiles": "CCOc1ccc(C(=O)NCC2(N3CCOCC3)CCCCC2)cc1", "activation": "inactive: -2.96%"},
      {"smiles": "O=C(NCC1(N2CCOCC2)CCCCC1)c1ccc(Cl)cc1", "activation": "inactive: -2.47%"},
      {"smiles": "COc1ccccc1C(=O)NCC1(N2CCOCC2)CCCCC1", "activation": "inactive: -4.66%"},
      {"smiles": "COc1cc(C(=O)NCC2(N3CCOCC3)CCCCC2)cc(OC)c1OC", "activation": "inactive: -2.85%"},
      {"smiles": "CC(C)(C)c1ccc(C(=O)NCC2(N3CCOCC3)CCCCC2)cc1", "activation": "inactive: -3.85%"},
      {"smiles": "Cc1ccccc1C(=O)NCC1(N(C)C)CCCCC1", "activation": "inactive: -0.635%"},
      {"smiles": "CN(C)C1(CNC(=O)c2ccc(C(C)(C)C)cc2)CCCCC1", "activation": "inactive: -2.5%"},
      {"smiles": "O=C(NCC1(N2CCOCC2)CCCCC1)c1ccccc1", "activation": "inactive: -2.89%"},
      {"smiles": "O=C(NCC1(N2CCOCC2)CCCCC1)c1ccc([N+](=O)[O-])cc1", "activation": "inactive: -4.06%"},
      {"smiles": "O=C(NCC1(N2CCOCC2)CCCCC1)c1ccccc1[N+](=O)[O-]", "activation": "inactive: -3.69%"}
    ]}
  ]
}
